Test [1] has as its target human activated kallikrein enzyme (Homo sapiens, UniProt P03952). The experiment in a line: Plasma kallikrein inhibition, fluorogenic PFR-AMC substrate, 500 pM activated kallikrein format. The following applies: read-out: Primary Dose Response Assay: Average EC50, 300 uM PFR-AMC, 30 min preincubation, 10 min reaction.
A further test addresses plasma kallikrein (Homo sapiens, UniProt P03952). Nature of the test: Neat human plasma assay, FXIIa contact pathway-activated, PFR-AMC substrate. The note with it: read-out: Human Plasma Assay: IC90; citrated human plasma 78% final, 10 nM human FXIIa, 100 μM PFR-AMC.

Protein sequences, listed by entry. Tags and fused reporters are not part of them. Residues count along the entry.
UniProt P03952, 391-638 limits assumed: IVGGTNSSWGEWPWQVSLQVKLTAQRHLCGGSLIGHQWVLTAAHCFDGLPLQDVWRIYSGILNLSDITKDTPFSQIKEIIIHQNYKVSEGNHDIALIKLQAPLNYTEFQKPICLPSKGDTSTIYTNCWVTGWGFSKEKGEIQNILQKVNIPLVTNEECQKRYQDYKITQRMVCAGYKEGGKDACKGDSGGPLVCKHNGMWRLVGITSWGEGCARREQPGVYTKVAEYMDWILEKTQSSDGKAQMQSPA
UniProt P03952, 20-390 partner limits assumed: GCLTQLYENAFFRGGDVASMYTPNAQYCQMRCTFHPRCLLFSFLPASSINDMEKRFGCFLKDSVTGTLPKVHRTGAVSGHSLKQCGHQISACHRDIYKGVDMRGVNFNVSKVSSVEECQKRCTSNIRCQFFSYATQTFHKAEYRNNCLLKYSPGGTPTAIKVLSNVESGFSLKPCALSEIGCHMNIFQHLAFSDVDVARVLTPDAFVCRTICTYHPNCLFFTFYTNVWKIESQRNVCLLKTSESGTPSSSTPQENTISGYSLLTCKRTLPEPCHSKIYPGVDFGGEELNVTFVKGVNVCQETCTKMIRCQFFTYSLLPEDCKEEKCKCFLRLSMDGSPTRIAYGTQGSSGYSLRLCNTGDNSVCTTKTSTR

As to `Cc1ccnc([C@H]2C[C@@H]2C(=O)Nc2cc(N[C@H](C)c3cn4cc(C5CC5)cc(N5CC6CC6C5=O)c4n3)ncn2)n1` (single isomer, unassigned), the EC50 in test [1] is below 1 nM. On to `O=C(Nc1cc(NCc2cn3cc(C4CC4)cc(N4CC5CC5C4=O)c3n2)ccn1)[C@H]1C[C@@H]1c1cccc(Cl)c1` (single isomer, unassigned), for which, at plasma kallikrein, the 90% effect concentration (IC90) was in the range of 400 to 1500 nM. In addition, the EC50 in test [1] was below 1 nM. For the molecule `CC1CCC(=O)N1c1cc(C2CC2)cn2cc(CNc3ccnc(NC(=O)[C@H]4C[C@@H]4c4cccc(Cl)c4)c3)nc12` (single isomer, unassigned), the IC90 on plasma kallikrein lay within 400 to 1500 nM. In addition, the half-maximal effective concentration (EC50) in test [1] is below 1 nM.

Turning to `O=C(Nc1cc(NCc2cn3cc(C4CC4)cc(N4CC5CC5C4=O)c3n2)ncn1)[C@H]1C[C@@H]1c1cccc(Cl)c1` (single isomer, unassigned), in test [1], the EC50 lay in the range of 1 to 10 nM.
